Assay results from patent US20220127607A1, “METHODS AND MATERIALS FOR ACTIVATING AN INTERNAL RIBOSOME ENTRY SITE IN EXON 5 OF THE DMD GENE” (RESEARCH INSTITUTE AT NATIONWIDE CHILDREN'S HOSPITAL, priority 2014, published 2022).

Tested on: dystrophin IRES
Procedure: FIGS. 5A-5F. […] (FIG. 5A) Dual luciferase assay performed on lysates from C2C12 cells transfected with the pRDEF vector carrying the exon 5-6 IRES construct. […] Error bars representate s.d. […] The image intensity for the wild-type lane was lowered to allow identification of bands. MHC=myosin heavy chain (loading control). […] Immunoblot was performed on each muscle in duplicate, and the signals for both dystrophin and α-actinin from the resulting 5 lanes were quantified using ImageJ. […] The signals for both utrophin and α-actinin from the resulting 5 lanes were quantified using ImageJ.
Furthermore, treatment with the glucocorticoids prednisone and deflazacort are standard treatment for DMD. […] Because utrophin translation may be regulated by corticosteroids and overexpression can compensate for absent dystrophin, we assessed utrophin levels in the same injected muscles (FIG. 5E).

Compound: C[C@H]1C[C@@H]2[C@H]([C@@H](O)C[C@@]3(C)[C@H]2CC[C@]3(O)C(=O)CO)[C@@]2(C)C=CC(=O)C=C12 [PDN, 6-methyl-prednisolone]
- downstream FLuc activity (fold change): over 20 fold
